Measurements reported in patent US5714470A.

Chains of the proteins cited; added tags and fusions are not shown. Residues count along the entry.
UniProt P08246, 30-247 limits assumed: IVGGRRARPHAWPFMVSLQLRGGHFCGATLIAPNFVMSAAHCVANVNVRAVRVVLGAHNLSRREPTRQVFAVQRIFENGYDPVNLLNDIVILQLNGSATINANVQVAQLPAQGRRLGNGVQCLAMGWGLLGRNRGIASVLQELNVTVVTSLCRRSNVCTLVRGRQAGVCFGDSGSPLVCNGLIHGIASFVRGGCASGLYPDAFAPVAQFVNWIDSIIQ

Tests used:
[1] = system: elastase-induced hemmorrhage; test: Elastase-induced hemmorrhage model in rats, oral activity; conditions: rat
[2] = target: human neutrophil elastase (Homo sapiens, UniProt P08246); test: In vitro inhibition of human elastase with chromophoric peptide substrate (Ki)
[3] = system: elastase-induced hemmorrhage; test: Elastase-induced hemmorrhage model in hamster, oral activity; conditions: * = significant at P < .05
[4] = dose 50 mg/kg, * = significant at P < .05
[5] = Table 2A, human neutrophil elastase, NMeOSucAlaAlaProVal-pNA as substrate
[6] = Table 2, human neutrophil elastase, NMeOSucAlaAlaProVal-pNA as substrate

`CC(C)C(NC(=O)[C@@H]1CCCN1C(=O)[C@@H](NC(=O)N(C)C)C(C)C)C(=O)C(F)(F)C(F)(F)F` (stereo partly drawn) was tested, and the “Oral Activity % Inhibition” value [1, 4] was 70%.
In the case of `CC(C)C(NC(=O)[C@@H]1CSCN1C(=O)[C@@H](NC(=O)c1ccc(C(=O)N2CCOCC2)cc1)C(C)C)C(=O)C(F)(F)C(F)(F)F` (stereo partly drawn), the Ki [2, 5] is reported as 70 nM.
In the case of `CC(C)C(NC(=O)[C@@H]1CCCN1C(=O)[C@@H](NC(=O)c1ccc(C(=O)N2CCOCC2)cc1)C(C)C)C(=O)C(F)(F)C(F)(F)F` (stereo partly drawn), the “Oral Activity % Inhibition” value ([3]; dose 10 mg/kg) is reported as 25%, the “Oral Activity % Inhibition” value ([3]; dose 25 mg/kg) is reported as 56% and the “Oral Activity % Inhibition” value ([3]; dose 50 mg/kg) is reported as 74%. It also gave a Ki [2, 6] of 20 nM and a Ki ([2]; Table 3) of 20 nM.
With `CC(C)C(NC(=O)[C@@H]1CCCN1C(=O)[C@@H](NC(=O)CN1CCOCC1)C(C)C)C(=O)C(F)(F)C(F)(F)F` (stereo partly drawn) the “Oral Activity % Inhibition” value ([1]; dose 10 mg/kg, * = significant at P < .05, tested form: HCl) was 39% and the “Oral Activity % Inhibition” value ([1]; dose 50 mg/kg, * = significant at P < .05, tested form: HCl) was 77%.
In the case of `CC(C)C(NC(=O)[C@@H]1CCCN1C(=O)[C@@H](NC(=O)c1ccc(C(=O)N2CCN(C(=O)N3CCOCC3)CC2)cc1)C(C)C)C(=O)C(F)(F)C(F)(F)F` (stereo partly drawn), the “Oral Activity % Inhibition” value ([3]; dose 25 mg/kg) is reported as 31%.
With `CC(C)C(NC(=O)[C@@H]1CCCN1C(=O)[C@@H](NC(=O)c1ccco1)C(C)C)C(=O)C(F)(F)C(F)(F)F` (stereo partly drawn) the “Oral Activity % Inhibition” value [1, 4] was 44%.
With `CC(C)C(NC(=O)[C@@H]1CCCN1C(=O)[C@@H](NC(=O)c1ccc(C(=O)N(C)CCN2CCOCC2)cc1)C(C)C)C(=O)C(F)(F)C(F)(F)F` (stereo partly drawn) the “Oral Activity % Inhibition” value ([3]; dose 25 mg/kg) was 17% and the Ki ([2]; Table 3) was 19 nM.
`CC(C)C(NC(=O)[C@@H]1CCCN1C(=O)[C@@H](NC(=O)CC(=O)N1CCOCC1)C(C)C)C(=O)C(F)(F)C(F)(F)F` (stereo partly drawn) was tested, and the “Oral Activity % Inhibition” value ([1]; doses printed 25 and 10 mg/kg but only one value) was 41%.
With `CC(C)C(NC(=O)[C@@H]1CCCN1C(=O)[C@@H](NC(=O)N1CCOCC1)C(C)C)C(=O)C(F)(F)C(F)(F)F` (stereo partly drawn) the “Oral Activity % Inhibition” value ([1]; dose 10 mg/kg, * = significant at P < .05) was 30%, the “Oral Activity % Inhibition” value ([1]; dose 25 mg/kg, * = significant at P < .05) was 61% and the “Oral Activity % Inhibition” value [1, 4] was 70%. For the same compound, the “Oral Activity % Inhibition” value ([1]; dose 100 mg/kg, * = significant at P < .05) was 79%.
With `CC(C)C(NC(=O)[C@@H]1CCCN1C(=O)[C@@H](NC(=O)c1ccc(C(=O)N2CCOCC2)nc1)C(C)C)C(=O)C(F)(F)C(F)(F)F` (stereo partly drawn) the “Oral Activity % Inhibition” value ([3]; dose 25 mg/kg) was 61%.
Work on `CC(C)C(NC(=O)[C@@H]1Cc2ccccc2CN1C(=O)[C@@H](NC(=O)c1ccc(C(=O)N2CCOCC2)cc1)C(C)C)C(=O)C(F)(F)C(F)(F)F` (stereo partly drawn) yielded a Ki [2, 5] of 120 nM.
With `CC(C)C(NC(=O)[C@@H]1CCCN1C(=O)[C@@H](NC(=O)c1ccc(NC(=O)N2CCOCC2)cc1)C(C)C)C(=O)C(F)(F)C(F)(F)F` (stereo partly drawn) the “Oral Activity % Inhibition” value ([1]; doses printed 50 and 10 mg/kg but only one value) was 26%.
Work on `CC(C)C(NC(=O)C1Cc2ccccc2CN1C(=O)[C@@H](NC(=O)c1ccc(C(=O)N2CCOCC2)cc1)C(C)C)C(=O)C(F)(F)C(F)(F)F` (stereo partly drawn) yielded a Ki [2, 5] of 100 nM.
With `CC(C)C(NC(=O)[C@@H]1CCCN1C(=O)[C@@H](NC(=O)C1CCOCC1)C(C)C)C(=O)C(F)(F)C(F)(F)F` (stereo partly drawn) the “Oral Activity % Inhibition” value [1, 4] was 71% and the Ki [2, 6] was 60 nM.
